The record followed here is US12582652B2, “3-(ethoxydifluoromethyl)-6-(5-fluoro-6-(2,2,2-trifluoroethoxy)pyridin-3-yl)-[1,2,4]triazolo[4,3-a]pyrazine as an ion channel modulator” (Praxis Precision Medicines, Inc., priority 2022, dated 2026).

Sequences of proteins named here, by UniProt entry; tags and fusion partners are left off.
UniProt Q9UQD0, whole entry: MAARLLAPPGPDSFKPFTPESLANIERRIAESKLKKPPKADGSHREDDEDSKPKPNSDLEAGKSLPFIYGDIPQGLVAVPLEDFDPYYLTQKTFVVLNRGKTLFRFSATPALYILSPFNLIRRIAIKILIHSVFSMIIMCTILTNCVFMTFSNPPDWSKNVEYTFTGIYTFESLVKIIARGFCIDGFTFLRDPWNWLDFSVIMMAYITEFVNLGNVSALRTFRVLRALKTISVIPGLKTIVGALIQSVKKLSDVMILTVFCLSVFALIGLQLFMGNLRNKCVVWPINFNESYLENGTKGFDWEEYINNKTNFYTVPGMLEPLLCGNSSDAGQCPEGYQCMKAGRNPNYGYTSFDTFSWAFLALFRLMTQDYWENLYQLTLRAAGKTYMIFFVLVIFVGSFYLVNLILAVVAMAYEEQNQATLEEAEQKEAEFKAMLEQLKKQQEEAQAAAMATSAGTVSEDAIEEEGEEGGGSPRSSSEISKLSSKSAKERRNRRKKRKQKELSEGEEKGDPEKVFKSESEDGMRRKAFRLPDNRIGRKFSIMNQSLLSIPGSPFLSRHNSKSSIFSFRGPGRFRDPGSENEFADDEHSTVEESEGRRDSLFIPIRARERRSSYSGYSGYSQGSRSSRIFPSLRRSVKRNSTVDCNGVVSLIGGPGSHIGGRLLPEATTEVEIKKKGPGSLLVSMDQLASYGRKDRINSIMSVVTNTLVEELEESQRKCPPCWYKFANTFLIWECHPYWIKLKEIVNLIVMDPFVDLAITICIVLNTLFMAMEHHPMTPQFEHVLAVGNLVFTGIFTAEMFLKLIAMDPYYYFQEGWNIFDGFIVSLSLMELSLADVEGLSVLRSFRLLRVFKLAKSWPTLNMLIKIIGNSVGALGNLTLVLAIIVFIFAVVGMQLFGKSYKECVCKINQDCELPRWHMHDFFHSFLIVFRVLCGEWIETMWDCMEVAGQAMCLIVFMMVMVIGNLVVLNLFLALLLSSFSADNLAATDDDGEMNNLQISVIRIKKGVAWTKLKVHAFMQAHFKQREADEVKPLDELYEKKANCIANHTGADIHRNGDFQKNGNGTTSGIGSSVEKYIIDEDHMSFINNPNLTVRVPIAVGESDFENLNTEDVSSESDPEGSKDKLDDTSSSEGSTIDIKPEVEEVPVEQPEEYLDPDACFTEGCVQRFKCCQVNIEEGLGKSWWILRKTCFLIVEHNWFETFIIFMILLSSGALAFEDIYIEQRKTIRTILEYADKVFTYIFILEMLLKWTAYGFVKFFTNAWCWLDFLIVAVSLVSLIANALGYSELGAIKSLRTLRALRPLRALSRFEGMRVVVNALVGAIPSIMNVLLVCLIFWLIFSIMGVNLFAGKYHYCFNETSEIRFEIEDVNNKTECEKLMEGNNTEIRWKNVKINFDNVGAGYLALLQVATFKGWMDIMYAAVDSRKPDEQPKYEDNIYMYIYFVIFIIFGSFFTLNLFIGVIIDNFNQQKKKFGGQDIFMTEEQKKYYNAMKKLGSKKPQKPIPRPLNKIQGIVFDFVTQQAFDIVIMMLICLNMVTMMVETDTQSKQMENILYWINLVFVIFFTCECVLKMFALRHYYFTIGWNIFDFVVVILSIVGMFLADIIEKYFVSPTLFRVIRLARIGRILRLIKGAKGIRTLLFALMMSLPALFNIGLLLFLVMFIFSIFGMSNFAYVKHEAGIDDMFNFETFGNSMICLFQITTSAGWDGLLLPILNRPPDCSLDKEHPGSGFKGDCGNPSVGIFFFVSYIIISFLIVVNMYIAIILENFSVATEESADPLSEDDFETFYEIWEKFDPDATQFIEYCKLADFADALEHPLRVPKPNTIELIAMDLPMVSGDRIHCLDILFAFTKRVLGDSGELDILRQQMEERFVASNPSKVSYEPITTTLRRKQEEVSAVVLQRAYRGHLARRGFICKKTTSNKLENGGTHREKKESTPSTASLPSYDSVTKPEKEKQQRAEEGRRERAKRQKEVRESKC

One data set has as its system male CD-1 mice. In words: Spontaneous locomotor activity (sLMA) test. The settings on record: brain TC50 (sLMA) / brain EC50 (MES), free concentrations.
For the next data set, the system named is CA1 pyramidal neurons. In words: Intrinsic excitability (evoked action potentials) of CA1 pyramidal neurons, brain slice whole-cell current clamp. The format is cell-based, mouse. Here is the method:
Three hundred micrometer coronal hippocampal slices were cut on a vibratome (VT1200; Leica) for whole-cell patch-clamp experiments. Slices were incubated for a minimum of 1 hour in the incubation solution at room temperature before patching.
Brain slices were transferred to a submerged recording chamber on an upright microscope (Slicescope Pro 1000; Scientifica) and were perfused (2 ml/min) with the extracellular artificial cerebral spinal fluid (aCSF) recording solution at 32° C. […]
Studies were performed using whole-cell current clamp recording mode. […] Once baseline action potential firing was determined in the presence of the extracellular aCSF recording solution (baseline), Compound 1 (300 nM or 3 μM) was washed onto the slice for 5 minutes before repeating the action potential generating protocol (FIG. 1B).
Data were analyzed using Axograph X software. Individual action potentials were identified and counted using a +50 mV amplitude threshold relative to pre-event baseline. […] Action potential amplitudes were determined relative to the pre-event baseline at the +200 pA current injection step for each cell. […] For statistical comparisons between groups, the total number of action potentials fired per cell was calculated. […]

Data set [1] has as its target T1, human NaV1.6 (Homo sapiens, UniProt Q9UQD0).
T1 construct: stably expressing either human NaV1.6 (NP_055006); expressed in transfected cells
In words: Peak INa voltage-dependent block (VDB), PatchXpress patch clamp. Type of data set: cell-based. The note with it: hNaV1.6. The method, then:
(§1) HEK-293 cell lines stably expressing either human NaV1.6 (NP_055006), mouse NaV1.6 (NP_035453.2), or rat NaV1.6 (NP_062139) were used. All cells were seeded at 2×10^6 cells per Nunc T75 flask for 2 days in culture. At time of harvest for assays, the cell counts were approximately 6×10^6 cells. Cells were washed (1×) in DPBS (Hyclone, Cat #SH30028.03) for approximately 30 seconds. 1 mL of 1×0.05% Trypsin-EDTA (GIBCO Cat #25300-054) was added and swirled around to cover the bottom of the flask and was allowed to sit on the cells for approximately 4 minutes (±90% of the cells were lifted by light tapping of the flask). […]
(§2) The same intracellular recording solution was used for the persistent and peak INa assays, which contained: 135 mM CsF, 10 mM CsCl, 5 mM NaCl, 10 mM HEPES, 5 mM EGTA at a pH of 7.4 (adjusted with CsOH) and a measured osmolarity of 298 mOsm (adjusted with mannitol). For the persistent INa assay, the external recording solution contained: 135 mM NaCl, 5.4 mM KCl, 5 mM glucose, 2 mM CaCl2), 1 mM MgCl2, 10 mM HEPES, and 200 nM ATX-II (sea anemone toxin, Alomone Labs; Jerusalem, Israel) at a pH of 7.4 (adjusted with NaOH) and a measured osmolarity of 300 mOsm (adjusted with mannitol). […]

The target in data set [2] is T1, human NaV1.6. In words: Peak INa tonic block (TB), PatchXpress patch clamp. The format is cell-based. The note with it: hNaV1.6. The method, then: as §1, §2
For orientation: Patch clamp records ionic current or voltage across a cell membrane.

The target in data set [3] is T1, human NaV1.6. Nature of the data set: Peak INa use-dependent block (UDB-10 Hz), PatchXpress patch clamp. Type of data set: cell-based. The note with it: hNaV1.6.
For data set [4], the target named is T1, human NaV1.6. In words: ATX-II activated late (persistent) INa block, PatchXpress patch clamp. The format is cell-based. The note with it: hNaV1.6, all assay conditions. Here is the method: as §1, §2
Late (persistent) current Block: The inhibition of ATX-II activated late current was measured using a 200 ms voltage step to 0 mV. […]

Take `Nc1nnc(-c2cccc(Cl)c2Cl)c(N)n1` [Lamotrigine, reference compound]: the “PI (Brain)” value in the data set on male CD-1 mice worked out at 4.7.
In the case of `NC(=O)N1c2ccccc2C=Cc2ccccc21` [Carbamazepine], the “neuronal excitability, number of evoked APs” value in the data set with CA1 pyramidal neurons (45 μmol/L CBZ (peak INa VDB IC50)) was “more robust reduction”. Further, the AP amplitude result in the data set with CA1 pyramidal neurons (+200 pA current injection, 0.3 μmol/L Compound 1, 45 μmol/L CBZ) is on record as “more pronounced reduction”. In addition, on human NaV1.6 [1], the “Ratio to Pers. INa (Peak INa VDB / persistent INa)” value is given as 0.6. Also, the “Ratio to Pers. INa (Peak INa TB / persistent INa)” value at human NaV1.6 [2] is 30. Also, at human NaV1.6 [3], the “Ratio to Peak INa (TB) (UDB-10 Hz)” value was determined as 1.6 and the “Ratio to Pers. INa (Peak INa UDB-10 Hz / persistent INa)” value is 18. Besides, the “preference for persistent INa relative to peak INa” value on human NaV1.6 [4] is “no preference for persistent INa”.
